{"sequences": {"note": "Chains of the proteins cited; added tags and fusions are not shown. Residues count along the entry.", "UniProt Q96RI1, 1-476 isoform 1 limits assumed": "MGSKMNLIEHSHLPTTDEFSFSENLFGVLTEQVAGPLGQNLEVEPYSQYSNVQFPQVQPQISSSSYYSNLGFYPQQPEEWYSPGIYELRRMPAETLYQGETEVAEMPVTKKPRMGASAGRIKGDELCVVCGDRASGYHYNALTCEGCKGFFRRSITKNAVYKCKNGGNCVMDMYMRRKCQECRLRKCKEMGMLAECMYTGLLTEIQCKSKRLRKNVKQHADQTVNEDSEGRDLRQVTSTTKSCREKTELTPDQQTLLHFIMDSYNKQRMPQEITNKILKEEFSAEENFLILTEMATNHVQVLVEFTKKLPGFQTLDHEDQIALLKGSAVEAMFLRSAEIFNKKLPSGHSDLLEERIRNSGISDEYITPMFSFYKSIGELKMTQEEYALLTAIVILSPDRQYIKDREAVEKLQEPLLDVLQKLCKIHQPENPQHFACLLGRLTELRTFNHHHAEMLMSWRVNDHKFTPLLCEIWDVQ", "UniProt Q96LA9, whole entry": "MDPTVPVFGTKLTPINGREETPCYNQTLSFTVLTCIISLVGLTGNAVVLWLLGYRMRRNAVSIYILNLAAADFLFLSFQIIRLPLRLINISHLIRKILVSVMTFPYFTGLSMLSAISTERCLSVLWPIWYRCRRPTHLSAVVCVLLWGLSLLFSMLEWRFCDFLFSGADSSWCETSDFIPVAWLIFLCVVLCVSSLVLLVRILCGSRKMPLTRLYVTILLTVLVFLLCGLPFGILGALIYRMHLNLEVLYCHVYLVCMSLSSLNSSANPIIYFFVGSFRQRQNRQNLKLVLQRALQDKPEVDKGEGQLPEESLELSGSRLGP"}, "source": "patent US20260116910A1", "about": "“POLYCYCLIC COMPOUNDS AND METHODS THEREOF” (HEPAITECH (BEIJING) BIOPHARMA TECHNOLOGY CO., LTD., priority 2021, published 2026)", "key": {"[1]": {"target": "human FXR (NR1H4) (Homo sapiens, UniProt Q96RI1)", "assay": "Human FXR (NR1H4) agonist assessment, FXRE-NanoLuc reporter in HEK293T cells", "assay_type": "cell-based"}, "[2]": {"target": "MRGPRX4 (Homo sapiens, UniProt Q96LA9)", "assay": "MRGPRX4 activation, Fluo-8 Ca2+ FLIPR assay in HEK293T cells stably expressing MRGPRX4", "assay_type": "cell-based", "set-up": "key to MRGPRX4 activation, Average: fluorescence change dF/F0"}}, "note": "pEC50: −log10 of the molar value.", "data": [{"compound": "[2H]C1([2H])CC[C@@]2(C)[C@@H](C1)[C@@H](CC)[C@@H](O)[C@@H]1[C@@H]2CC[C@]2(C)[C@@H]([C@H](C)CCC(=O)O)CC[C@@H]12", "values": [{"measurement": "Efficacy (maximum measured induction of NanoLuc, normalized to CDCA set as 100%)", "setting": "[1]", "value": "C (key: A: efficacy >400%; B: 300%<efficacy <=400%; C: 100%<efficacy <=300%; D: efficacy <=100%)"}, {"measurement": "pEC50", "setting": "[1]; FXR activation, HEK293T FXRE-NanoLuc reporter, 24 hr", "value": "> 6.00"}, {"measurement": "MRGPRX4 activation, Average", "setting": "[2]; E3-9, Conc. (Log[M]) −4.0", "value": 0.196}, {"measurement": "MRGPRX4 activation, Average", "setting": "[2]; E3-9, Conc. (Log[M]) −4.5", "value": "−0.004"}, {"measurement": "MRGPRX4 activation, Average", "setting": "[2]; E3-9, Conc. (Log[M]) −5.0", "value": 0.010}, {"measurement": "MRGPRX4 activation, Average", "setting": "[2]; E3-9, Conc. (Log[M]) −5.4", "value": 0.018}, {"measurement": "MRGPRX4 activation, Average", "setting": "[2]; E3-9, Conc. (Log[M]) −5.9", "value": 0.015}, {"measurement": "MRGPRX4 activation, Average", "setting": "[2]; E3-9, Conc. (Log[M]) −6.4", "value": 0.013}, {"measurement": "MRGPRX4 activation, Average", "setting": "[2]; E3-9, Conc. (Log[M]) −6.9", "value": 0.018}, {"measurement": "MRGPRX4 activation, Average", "setting": "[2]; E3-9, Conc. (Log[M]) −7.3", "value": 0.015}, {"measurement": "MRGPRX4 activation, Average", "setting": "[2]; E3-9, Conc. (Log[M]) −7.8", "value": 0.018}, {"measurement": "MRGPRX4 activation, Average", "setting": "[2]; E3-9, Conc. (Log[M]) −8.3", "value": 0.027}, {"measurement": "EC50", "setting": "[2]; read-out: Activity (EC50 μM), MRGPRX4 activation, Ca2+ fluorescence, no activation in tested range reported as III", "value": "> 100", "unit": "µM"}]}]}
